The first test addresses T1, IL-17A (Homo sapiens, UniProt Q16552).
T1 sequence (Q16552 24-155): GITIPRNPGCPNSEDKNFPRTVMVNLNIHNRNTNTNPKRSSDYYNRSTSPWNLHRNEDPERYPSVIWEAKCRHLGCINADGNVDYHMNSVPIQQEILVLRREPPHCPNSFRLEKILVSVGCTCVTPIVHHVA
Briefly: IL-17A binding assay (method analogous to WO 2011/141823). The conditions noted are these: read-out: IL-17A Affinity. The protocol: IL-17A binding was determined using an analogous method to that described in WO 2011/141823.
Selected peptide ligands of the invention were tested in the above mentioned IL-17A binding assay and the results are shown in Table 2: […]
“(SEQ ID NO: 2)-[Sar6]-[K(Fl)] [BCY14461]”: the Kd is 7.9 nM.
The same measure, in the same setting: next, “(SEQ ID NO: 35)-[Sar6]-[K(Fl)] [BCY14428]”: 1.5 nM.
As for “(SEQ ID NO: 36)-[Sar6]-[K(Fl)] [BCY14427]”, the Kd was 1.4 nM.
Still for that read-out and setting: next, CiDTDPELCiiRF[tBuAla]GLDCiii [BCY13653]: 26.8 nM.
Still for that read-out and setting: then CiDTDPELCiiR[2FuAla]LGLDCiii [BCY13635], with 232 nM; and CiDTDPELCii[Cav]FLGLDCiii [BCY13641], with 50.4 nM.

The next test deals with T1, IL-17A. As to the kind of experiment: Human IL-17A fluorescence polarization (FP) competition. The class given is binding. Particulars: tracer BCY13351; 50 nM IL-17A; 1 nM tracer; 25° C. As to the method:
Human IL-17A Fluorescence Polarization (FP) Competition
Affinity determination by fluorescence polarization (FP) competition. Bicycles were screened to determine affinity (Ki) in a fluorescence polarisation assay where in competition with a bicycle labelled with fluorescein (referred to as tracer) with a known affinity for IL-17A. Peptides were diluted to an appropriate concentration in assay buffer (PBS+0.01% Tween20, adjusted to pH7.4 using NaOH (1M)) with a maximum of 1% DMSO, then serially diluted 1 in 2 into assay buffer. Into black 384-well low volume plates, 5 μL of diluted peptide was added to the plate followed by 10 μL of IL-17A at a fixed concentration (75 nM IL-17A for tracer BCY13196, 50 nM IL-17A for tracer BCY13351), then 10 μL tracer added to a final concentration of 1 nM. Measurements were conducted on a BMG PHERAstar FS equipped with an “FP 485 520 520” optic module which excites at 485 nm and detects parallel and perpendicular emission at 520 nm. The PHERAstar FS was set at 25° C. with 200 flashes per well and a positioning delay of 0.1 second, with each well measured at 5 to 10 minute intervals for 60 minutes. The gain used for measurements was determined at the point of experiment on a tracer alone well. Data analysis was performed in Dotmatics where mP values were fit to the Cheng Prusoff equation in order to generate a Ki value.
BCY13196: [Fl]-ACPQDLELCTFLFGDCA (SEQ ID NO: 39);
BCY13351: [Fl]-G-[Sar5]-ACDTDPELCRFLGLDCA (SEQ ID NO: 40); and
BCY13352: ACEGDPELCRFLGLECA-[Sar6]-K-[Fl] (SEQ ID NO: 41);
wherein Fl represents fluorescein and Sar represents sarcosine.
Selected peptide ligands of the invention were tested in the above mentioned IL-17A human fluorescence polarization (FP) competition assay and the results are shown in Table 1: […]
Broadly, the Ki is a measure of affinity in units of concentration, obtained from inhibition or displacement. As to CiDTDPELCiiAFLGLDCiii [BCY13208], the inhibition constant Ki was 36.3 nM.
Same read-out and setting: next, CiDTDPELCiiCR[3FPhe]LGLDCiii [BCY13214]: 40.5 nM.
On the same count and under the same terms, then CiDTDPELCiiRFLGIDCiii [BCY13221], with 29.9 nM; and CiDTDPELCiiRFLGLDCiii [BCY13202], with 13.6 nM.
As for CiDTDPELCiiRFLGVDCiii [BCY13222], the Ki is 62.9 nM.
The same measure, in the same setting: next, CiDTDPELCiiRFLG[C5A]DCiii [BCY13248]: 19.6 nM.
As to CiDTDPELCiiRFLG[Cba]DCiii [BCY13247], the Ki amounted to 21.2 nM.
Same read-out and setting: then CiDTDPELCiiRFLG[tBuAla]DCiii [BCY13220], with 14.4 nM; and CiDTDPELCiiRFLNLDCiii [BCY13219], with 114 nM.
On to CiDTDPELCiiRFL[dA]LDCiii [BCY13201], for which the Ki worked out at 23 nM.
For CiDTDPELCiiRFL[dE]LDCiii [BCY13647], the Ki amounted to 28.7 nM.
For the substance CiDTDPELCiiRFL[dV]LDCiii [BCY13648], the inhibition constant (Ki) was 23 nM.
On the same count and under the same terms, then CiDTDPELCiiRF[Cba]GLDCiii [BCY13643], with 17 nM; and CiDTDPELCiiR[2NaI]LGLDCiii [BCY13216], with 1520 nM; and CiDTDPELCiiR[2PaI]LGLDCiii [BCY13210], with 495 nM.
The same measure, in the same setting: then CiDTDPELCiiR[3PaI]LGLDCiii [BCY13211], with 572 nM; and CiDTDPELCiiR[4FPhe]LGLDCiii [BCY13215], with 26.1 nM; and CiDTDPELCiiR[4PaI]LGLDCiii [BCY13212], with 1200 nM.
Same read-out and setting: then CiDTDPELCiiR[Thi]LGLDCiii [BCY13654], with 58.7 nM; and CiDTDPELCiiSFLGLDCiii [BCY13651], with 41.1 nM; and CiDTDPELCii[ADMA]FLGLDCiii [BCY13636], with 25 nM.
CiDTDPELCii[Agb]FLGLDCiii [BCY13637]: the Ki was 32.9 nM.
CiDTDPELCii[HArg]FLGLDCiii [BCY13199]: the Ki came to 32.4 nM.
The same measure, in the same setting: next, CiDTDPELCii[NMeArg]FLGLDCiii [BCY13209]: 26.6 nM.
Still for that read-out and setting: next, CiDTDPE[Cba]CiiRFLGLDCiii [BCY13642]: 22.7 nM; CiDTDPE[tBuAla]CiiRFLGLDCiii [BCY13652]: 18.7 nM.
Consider CiDTD[Aze]ELCiiRFLGLDCiii [BCY13205], for which the Ki worked out at 84.2 nM.
CiDTD[HyP]ELCiiRFLGLDCiii [BCY13204]: the Ki is 58.6 nM.
In the case of CiDTD[NMeAla]ELCiiRFLGLDCiii [BCY13207], the Ki worked out at 31.6 nM.
Still for that read-out and setting: then CiDTD[Pip]ELCiiRFLGLDCiii [BCY13206], with 56.6 nM.

Values taken from patent US20230021419A1, “BICYCLIC PEPTIDE LIGANDS SPECIFIC FOR IL-17” (BicycleTx Limited, priority 2019, published 2023).
